Data on 1 compound can be found in paper PMC12135508 (Antimicrobial Agents and Chemotherapy, 2025).

Amino acid sequences for entries named in this document (tags omitted). Residues count along the entry.
UniProt Q9F663, 25-293 limits assumed: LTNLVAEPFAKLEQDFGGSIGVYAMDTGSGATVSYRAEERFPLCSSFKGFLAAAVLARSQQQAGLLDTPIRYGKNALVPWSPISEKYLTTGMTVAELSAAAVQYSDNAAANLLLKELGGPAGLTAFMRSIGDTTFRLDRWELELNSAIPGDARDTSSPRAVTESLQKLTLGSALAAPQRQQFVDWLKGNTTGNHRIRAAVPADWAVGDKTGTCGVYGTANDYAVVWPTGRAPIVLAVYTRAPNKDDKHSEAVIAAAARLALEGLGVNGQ
UniProt Q9F663, 25-240, added parts left off, stated change not applied: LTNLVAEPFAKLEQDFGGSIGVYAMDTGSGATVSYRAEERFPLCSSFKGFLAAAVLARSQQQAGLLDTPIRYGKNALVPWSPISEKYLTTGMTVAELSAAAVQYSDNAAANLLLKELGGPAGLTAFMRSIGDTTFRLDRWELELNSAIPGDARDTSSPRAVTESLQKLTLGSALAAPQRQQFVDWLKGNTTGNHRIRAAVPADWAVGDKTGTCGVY

One assay concerns the target T1, KPC-2 (Klebsiella pneumoniae, UniProt Q9F663).
T1 construct: The complete blaKPC-2 gene was amplified from whole DNA; made in house; host or cells: E. coli BL21(DE3), pET24a(+)
The assay can be described thus: biochemical.

The next assay addresses KPC-14 (Klebsiella pneumoniae, UniProt Q9F663, DEL241-242). Description: Inhibition kinetics of DBO inhibitors on KPC-14 (nitrocefin competition). In kind it is biochemical. Further details: amplify the entire blaKPC-14 gene with the cloning primers; made in house; host or cells: E. coli BL21(DE3), pET24a(+). The note with it: nitrocefin reporter, corrected, read-out: Ki app.

As for `O=C(NC1CCNCC1)[C@@H]1CC[C@@H]2CN1C(=O)N2OS(=O)(=O)O` [Relebactam, relebactam], the Ki worked out at 60 ± 0.7 nM at KPC-2 and 22.9 ± 0.9 µM at KPC-14.
